In this series the test system is QTc interval. Put plainly: ASSIST-1 and ASSIST-2 Phase III trials, QTc safety. As to conditions: ASSIST-1 and ASSIST-2 treatment arms; iclaprim 0.8 mg/kg over 0.5 hours q12h 7 to 10 days.

Take `CC(=O)NC[C@H]1CN(c2ccc(N3CCOCC3)c(F)c2)C(=O)O1` [linezolid]: the “adverse events related to QTc prolongation” value was 2 cases.

The record behind these values is patent US20190117653A1, “SYSTEMS AND METHODS FOR TREATING BACTERIAL INFECTION” (priority 2016, published 2019).
